Screening data: PubChem, National Center for Advancing Translational Sciences (NCATS)
Rango release inh: inhibition of RanGTP-driven Rango-importin beta dissociation; O95149+P62826; Biochemical FRET Rango-importin beta, RanGTP-induced dissociation; Potency, µM (series often up to 46.1 µM), for the others: at the highest dose activity change, negative = inhibition; hit rate 0.071% among 340,000; AID 540253; further: % of control where 0% means no effect; nearly all actives have a fitted effect of over 45% in size
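Rango FRET biosensor (snurportin-1 IBB flanked by N-terminal EYFP and C-terminal CFP10) at 0.1 uM, with 0.25 uM importin beta in PBS, 1mM DTT, 0.02% Tween-20, 0.1% BSA. 0.6 uM Ran, 2mM GTP and 0.2 uM RCC1 were then added for 45 min at room temperature. Inhibition read as loss of FRET rise.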
gsp antag: gsp mutant antagonism; gsp-mutant cells, cAMP HTRF, 30 min; Potency, µM (titrated, usually from 76.9 µM), for inactives: at the highest dose activity change, negative = inhibition, hits mostly inhibitors; hit rate 0.4% among 340,000; calls by dose curve; cell line not stated here;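 further: intracellular cAMP measured with PDE inhibitor Ro 20-1724 present during compound exposure; on the % scale 0 is the no-effect control and ±100 the full control effect; nearly all actives have a fitted effect of over 65% in size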
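Measurement of cellular cAMP by homogeneous time-resolved fluorescence following a 30 min compound exposure at 37C. The PDE inhibitor […] was present throughout; the assay buffer was DPBS with 0.05% BSA and 0.005% Tween 20.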
Rango complex inh: prevents formation of the Rango-importin beta complex; Rango CFP/YFP FRET sensor + importin beta, 45 min; Potency, µM (doses to about 92.2 µM), for the others: at the highest dose inhibition of complex formation; hit rate 0.031% among 340,000; AID 540263;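 further: 0% = DMSO wells and 100% = buffer wells lacking importin beta; nearly all actives have a fitted effect of over 15% in size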
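FRET biosensor (snurportin 1 IBB flanked by EYFP and cerulean), 50 nM, with compound 5 min, then 0.125 microM importin beta in PBS, 1 mM DTT, 0.02% Tween-20, 0.1% BSA. CFP/YFP ratio read after 45 min at room temperature; pre-read flags interference.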
gsp agonist: activates gsp, the McCune-Albright syndrome mutation | gsp mutant cells, cAMP HTRF, 30 min | Potency, µM (highest dose often 76.9 µM), for the others: at the highest dose activation (cAMP increase), usual class: activators | hit rate 0.13% among 340,000 | AID 624287; active means well fitted activation curve with a large enough effect; inconclusive means small, poorly fitted or top-dose-only effect, or another doubt; inactive means no such curve, though single readings can be large or run the other way; cell line not stated here;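 further: phosphodiesterase inhibitor Ro 20-1724 added with compounds to block cAMP breakdown; nearly all actives have a fitted effect of over 60% in size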
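Cells stably selected in G418 were plated at 2000/well, grown 16-24 hr, then given compounds in DMSO with the PDE inhibitor […] (300 uM solution added) for 30 min at 37C; cAMP was read by HTRF.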
* marks the source's active call; other numbers are inactive results; [ ] = dose if it differs, or a comment. An excerpt weighted towards active compounds, which were near 0.66% of everything screened. Unless noted, the call rests on the fitted dose curve. Potency means the concentration at half of the fitted maximal effect.

CC(=O)c1ccc(N2CCN(C(=O)CCCc3nc4ccccc4s3)CC2)cc1 was read as Rango release inh -13.6%, gsp antag 31.6µM*, Rango complex inh -1.9% and gsp agonist -4.5%.
O=c1oc2cc(O)c(Cl)cc2c2ccccc12 was read as Rango release inh inconclusive, gsp antag -2.5%, Rango complex inh inconclusive and gsp agonist 2.24µM*.
For COc1ccccc1N1CC(C(=O)OC(C)C(=O)Nc2ccc(F)cc2)CC1=O (stereo not drawn) the results were gsp agonist -94.5%.
For CCCCCOC(=O)C1=C(C)N(C)C(=O)NC1c1cc(Br)c(O)c(OC)c1 (stereo not drawn) the results were Rango release inh -1.2%, gsp antag 7.08µM*, Rango complex inh 3.3% and gsp agonist 3.8%.
For COc1ccccc1C1C2=C(CC(C)(C)CC2=O)N(CC(=O)O)C2=C1C(=O)CC(C)(C)C2 the results were Rango release inh inconclusive, gsp antag 2.2%, Rango complex inh inconclusive and gsp agonist -17.5%.
For Cc1nn(C)cc1C1C2=C(CC(C)(C)CC2=O)N(c2ccccc2)C2=C1C(=O)CC(C)(C)C2 the results were Rango release inh 8.2µM*, gsp antag -13.3%, Rango complex inh inconclusive and gsp agonist inconclusive.
`COc1ccc(N2C3=C(C(=O)CC(C)(C)C3)C(c3ccccc3OC)C3=C2CC(C)(C)CC3=O)cc1` gave Rango release inh inconclusive, gsp antag 28.2µM*, Rango complex inh inconclusive and gsp agonist inconclusive.
`COCC(C)NC(=O)CSc1nnc(-c2cccc(S(=O)(=O)N3CCCCC3)c2)o1` (stereo not drawn) gave Rango release inh -25.3%, gsp antag 11.2µM*, Rango complex inh 1.8% and gsp agonist 10.0%[15.4 µM].
Screening CC(C)CNC(=O)CSc1nnc(-c2cccc(S(=O)(=O)N3CCCCC3)c2)o1 returned Rango release inh 10.1%, gsp antag -12.8%, Rango complex inh 3.6% and gsp agonist 0.8%.
`C[C@@H]1CN([C@@H](C)CO)C(=O)CCCn2nncc2CO[C@@H]1CN(C)C(=O)c1ccc(N2CCN(C)CC2)cc1` gave gsp agonist 10µM*.
`CC1([N+](=O)[O-])COC(c2cccc3ccccc23)OC1` (stereo not drawn) gave Rango release inh 0.4%, gsp antag 8.5%, Rango complex inh -1.7% and gsp agonist -14.6%[15.4 µM].
`CCOC(=O)CN1C(=O)S/C(=C/C=C/c2ccc(N(C)C)cc2)C1=O` gave Rango release inh 11.8%, gsp antag -15.3%, Rango complex inh 5.8µM* and gsp agonist -2.3%[15.4 µM].
CCCCCCCCn1ccc(=N)cc1 was read as Rango release inh 5.8%, gsp antag 10.4%, Rango complex inh 2.0% and gsp agonist -3.1%[15.4 µM].
For CCCCCCCCCCCCCCCCn1cc[n+](C)c1 the results were Rango release inh inconclusive, gsp antag 20.4%, Rango complex inh 65.1µM* and gsp agonist -10.6%[15.4 µM].
Screening C[C@@H]1CN([C@@H](C)CO)C(=O)CCCn2nncc2CO[C@@H]1CN(C)S(=O)(=O)c1ccc(Oc2ccccc2)nc1 returned gsp agonist -81.3%.
For O=C(NC1CCCCC1)c1cccc(NC(=O)c2ccccc2Cl)c1 the results were gsp agonist 6.9%.
`COc1ccc(N2C(=O)C(Cl)=C(Oc3cccc(OC)c3)C2=O)cc1` gave Rango release inh 10.2%, gsp antag 28.2µM*, Rango complex inh -2.1% and gsp agonist -3.3%[15.4 µM].
Screening C[C@H](CO)N1C[C@H](C)[C@@H](CN(C)S(=O)(=O)c2ccc(-n3cccn3)cc2)OCc2cn(nn2)CCCC1=O returned gsp agonist -27.9%.
`COc1ccc(C2CCCCC2SCC(=O)O)cc1OC` (stereo not drawn) gave gsp agonist -10.8%.
COC(=O)[C@H](CC(C)C)NC(=O)c1cc2c(cn1)[nH]c1ccccc12 was read as Rango release inh 16.3%, gsp antag 7.94µM*, Rango complex inh 2.2% and gsp agonist inconclusive.
Screening Cc1ccc(S(=O)(=O)c2c(N)n(-c3ccccc3)c3nc4ccccc4nc23)cc1 returned Rango release inh 14.6µM*, gsp antag inconclusive, Rango complex inh inconclusive and gsp agonist 11.0%[15.4 µM].
CCOc1ccccc1N1CCN(CC(=O)N(C)CC(=O)Nc2ccccc2CC)CC1 was read as gsp agonist -86.0%.
Brc1nnc2n1-c1ccccc1Sc1ccccc1-2 was read as Rango release inh 2.1%, gsp antag inconclusive, Rango complex inh -1.8% and gsp agonist -0.1%.
Screening Clc1ccc2c(c1)-c1nnc(Br)n1-c1ccccc1S2 returned Rango release inh -2.5%, gsp antag 20µM*, Rango complex inh -1.4% and gsp agonist 1.8%.
CCOc1ccc(NC(=O)OCCN2CCN(CCc3ccccc3)C(C)C2)cc1 (stereo not drawn) was read as Rango release inh inconclusive, gsp antag 7.6%, Rango complex inh inconclusive and gsp agonist 1.9%[15.4 µM].
`O=C(N/N=C/c1ccc(-c2cccc([N+](=O)[O-])c2)o1)c1ccccc1O` gave Rango release inh 16.7%, gsp antag 50.1µM*, Rango complex inh 5.4% and gsp agonist -23.2%.
O=C(O)CCC(=O)N1N=C(c2ccccc2)CC1c1ccc(Br)cc1 (stereo not drawn) was read as Rango release inh 5.6%, gsp antag 39.8µM*, Rango complex inh 0.3% and gsp agonist 5.8%[15.4 µM].
`COc1ccc(NC(=O)/C(C#N)=C/c2ccc(-c3ccccc3C(=O)O)o2)cc1` gave Rango release inh -4.2%, gsp antag -21.5%, Rango complex inh -3.3% and gsp agonist -53.8%.
For COc1ccc(NC(=O)/C(C#N)=C\c2ccc(-c3cc(C(=O)O)ccc3C)o2)cc1 the results were Rango release inh inconclusive, gsp antag 44.7µM*, Rango complex inh inconclusive and gsp agonist -24.1%.
Screening O=C(C(=Cc1ccccc1)CN1CCCCC1)c1ccccc1 returned Rango release inh -6.2%, gsp antag -8.5%, Rango complex inh -0.1% and gsp agonist 29.9%.
Screening COc1ccc(-c2cc(=O)c3cc(OC)ccc3[nH]2)cc1 returned Rango release inh -15.0%, gsp antag -1.6% and Rango complex inh -1.3%.
COc1ccc(-c2cc(=O)[nH]c(=S)[nH]2)cc1 was read as Rango release inh -0.1%, gsp antag 0.4%, Rango complex inh 1.8% and gsp agonist 10µM*.
For CCCCN1C(=O)C(CC(=O)NC2CCCCC2)CC(C(=O)N(C)C)=C1C (stereo not drawn) the results were gsp agonist -6.9%.
For CC1CN=C(NS(=O)(=O)c2ccccc2)N1 (stereo not drawn) the results were gsp agonist 2.2%.
For O=C1CN(c2nc(-c3cccnc3)nc3sc4c(c23)CCCC4)CCN1 the results were Rango release inh 1.4%, gsp antag -11.9%, Rango complex inh 0.1% and gsp agonist 25.1µM*.

Arranged by molecular weight (largest number first): 4 of the compounds above
For CCCCN1C(=O)C(CC(=O)NC2CCCCC2)CC(C(=O)N(C)C)=C1C (stereo not drawn) the results were gsp agonist -6.9%.
For O=C1CN(c2nc(-c3cccnc3)nc3sc4c(c23)CCCC4)CCN1 the results were Rango release inh 1.4%, gsp antag -11.9%, Rango complex inh 0.1% and gsp agonist 25.1µM*.
For CC1CN=C(NS(=O)(=O)c2ccccc2)N1 (stereo not drawn) the results were gsp agonist 2.2%.
COc1ccc(-c2cc(=O)[nH]c(=S)[nH]2)cc1 was read as Rango release inh -0.1%, gsp antag 0.4%, Rango complex inh 1.8% and gsp agonist 10µM*.
